Laboratory results: patent publication US11781160B2, “Methods for the production of methacrylates” (priority 2018, dated 2023)

Test system: E. coli BW 25113
Experiment: Growth of E. coli BW25113 (wild type) with BMA in M9 minimal medium
Settings: 0.01% v/v BMA

C=C(C)C(=O)OCCCC [BMA, butyl 2-methylprop-2-enoate]
Growth of E. coli compared with growth in the absence of BMA: very similar to its growth in the absence of BMA
